Values quoted from earlier work, collected in patent US11823773B2, “Nant cancer vaccine strategies” (Nant Holdings IP, LLC, priority 2018, dated 2023).

Test system: metastatic melanoma

interleukin-2 [IL-2]
toxicity (in vivo): high toxicities | responders remaining progression free (of the subjects who responded, median follow-up of 62 months): 28% | overall ORR (subjects with metastatic melanoma, high-dose IL-2): 16%
